Laboratory results published in PubChem BioAssay AID624352 (Sanford-Burnham Center for Chemical Genomics, 2012).
This is a selection; strong and weak results do not stand in their true shares. Active and inactive are the calls of the source.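 Rule for the calls: active = inhibition of the luminescence signal of 40% or more relative to plate controls, in a single-dose primary screen at 18.75 µM; inactive = the rest.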

Assay: blockers of HIF-2a driven luciferase – luminescence, 786-0 RCC cells, primary screen (AID 624352)
Conditions: 786-0 RCC cells HIF-2a reporter, overnight, at 18.8 µM, active compounds read high
For `CP(=O)(Nc1cccc(Br)c1)Oc1ccccc1` (stereo unspecified), the inhibition was inactive: 13.2%.
